Experimental data: patent publication US11299480B2
≈ marks a conversion by molar mass, not a printed value.

Columns and labels:
Caco-2 cells = test: Cell membrane permeability, Caco-2 cells assay
[1] = Mouse liver microsomal (MLM) metabolic stability
[2] = Aqueous solubility (PBS, SGF, SIF)
[3] = Human liver microsomal (HLM) metabolic stability; details: human liver microsomes

CN(CC(=O)N(Cc1ccc(C2CCCCC2)cc1)c1ccc(C(=O)NO)cc1)S(=O)(=O)c1c(F)c(F)c(F)c(F)c1F
Caco-2 Cells Recovery A to B (Caco-2 cells; apical to basolateral, second number of cell): 2%
Caco-2 Cells Recovery B to A (Caco-2 cells; basolateral to apical, second number of cell): 8%
Caco-2 permeability (Caco-2 cells; compounds with cyclohexyl group instead of THP ring): no appreciable permeability
Metabolic Stability Half-Life MLM ([1]; mouse liver microsomes): 17 min
RLM t1/2 ([1]; printed as RLM, method and Table 1 say mouse liver microsomes (MLM)): ≥ 17 min
solubility in PBS buffer pH 7.4 [2]: 0.3 μg/mL
solubility in simulated intestinal fluid (SIF) [2]: 74 µg/mL (≈ 118 µM)
Solubility PBS ([2]; PBS buffer pH 7.4): 0.3 micrograms/milliliter
Solubility SIF ([2]; simulated intestinal fluid): 74 micrograms/milliliter
HLM t1/2 [3]: ≥ 17 min
Metabolic Stability Half-Life HLM [3]: 19 min
